Reference: patent publication US11779592B2, “Inhibition of NGLY1 for the treatment of cancer” (University of North Texas Health Science Center, priority 2017, dated 2023)

Legend:
MALME3M cells = conditions: in combination with dox-induced NGLY1 knockdown
Procedure: (§1) Despite the frequent failure of chemotherapy in patients with melanoma, chemotherapy remains a frontline approach for treatment, especially in many patients who cannot afford immunotherapy or targeted therapy. […] Identifying novel approaches to enhance the efficacy of chemotherapy and targeted therapy agents in melanoma will greatly benefit many cancer patients. […] The IC50 of each drug treatment in each cell clone was calculated using CalcuSyn 2.0.
(§2) The dose effect of dox-induced expression of NGLY1 shRNA in each cell clone was also determined. The IC50 of each drug treatment in each cell clone was calculated using CalcuSyn 2.0. To determine the interaction between NGLY1 knockdown and each anticancer agent, cells were exposed to four-dose combinations of dox and an anticancer agent at a fixed dose ratio. The combination index (CI) value was calculated using CalcuSyn 2.0. CI values of less than 1 are considered a synergistic interaction. […]
(§3) Cells were seeded into 96-well plates (2,500-5,000 cells/well, depending on cell types), incubated overnight, and treated as indicated. […] Reduced MTT was solubilized in DMSO for determination of absorbance at 570 nm. Absorbance of reduced MTS was directly measured in the reaction medium at 490 nm. The relative cell viability in each treatment condition was calculated based on absorbance values.

SK-MEL-2 cells = assay: Cell viability test (MTT) in SK-MEL-2 cells; conditions: in combination with dox-induced NGLY1 knockdown
Procedure: as §1, §2, §3

Compound	cytotoxicity in combination with NGLY1 knockdown (MALME3M cells)	cytotoxicity in combination with NGLY1 knockdown (SK-MEL-2 cells)
CN(C)/N=N/c1[nH]cnc1C(N)=O [dacarbazine, reference compound]	highly synergistic effect	highly synergistic effect
Cn1nnc2c(C(N)=O)ncn2c1=O [temozolomide, reference compound]	highly synergistic effect	highly synergistic effect
